Here are results for 12 compounds from PubChem BioAssay (Tox21).

The chains behind the UniProt entries cited, without tags or fusion partners.
UniProt P03372, whole entry: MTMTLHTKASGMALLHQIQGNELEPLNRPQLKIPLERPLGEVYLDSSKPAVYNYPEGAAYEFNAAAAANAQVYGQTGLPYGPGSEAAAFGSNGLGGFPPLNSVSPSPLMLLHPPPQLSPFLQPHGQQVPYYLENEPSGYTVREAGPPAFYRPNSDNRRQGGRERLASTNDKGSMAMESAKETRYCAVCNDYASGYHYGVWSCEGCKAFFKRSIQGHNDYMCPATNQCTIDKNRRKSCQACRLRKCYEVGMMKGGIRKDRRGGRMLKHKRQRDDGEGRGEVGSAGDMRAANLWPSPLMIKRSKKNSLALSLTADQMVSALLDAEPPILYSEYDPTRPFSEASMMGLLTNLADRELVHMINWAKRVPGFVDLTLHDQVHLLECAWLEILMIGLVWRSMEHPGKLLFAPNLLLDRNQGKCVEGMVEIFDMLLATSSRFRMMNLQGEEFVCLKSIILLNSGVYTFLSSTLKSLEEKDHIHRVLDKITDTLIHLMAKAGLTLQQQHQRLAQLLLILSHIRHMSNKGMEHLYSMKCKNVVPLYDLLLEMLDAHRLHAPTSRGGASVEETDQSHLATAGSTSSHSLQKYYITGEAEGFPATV

SMILES strings stand for the structures. “And” between values parts separate entries of the source, which are not always exact repeats. Equal values may be shown once. The entries are a selection whose mix differs from that of the whole data set. Results filed as inconclusive are left out. The source made the active and inactive calls. The call rests on the fitted dose curve; in most records, active means well fitted curve in the direction sought with a large enough effect in the signal ratio in the repeat runs (not every such curve was filed as active); inconclusive means weak or mixed curves, or effect the other way; inactive means no such curve, though single readings can be large or run the other way; the % refers to the signal ratio.
On the % scale 0 is the no-effect control and ±100 the full control effect.

In one test the target is Estrogen receptor (Homo sapiens) (UniProt P03372). The experiment in a line: qHTS assay to identify small molecule antagonists of the estrogen receptor alpha (ER-alpha) signaling pathway (AID 743069). The note with it: HEK293 ER-alpha-UAS-bla, beta-lactamase ratio, antagonist mode; at 69.4 µM (top of the series). The source says: National Center for Advancing Translational Sciences [NCATS]
NIH Chemical Genomics Center [NCGC]
U.S. Environmental Protection Agency [EPA]
National Institutes of Environmental Health Sciences [NIEHS]
National Toxicology Program [NTP]
U.S. Food and Drug Administration [FDA]
Estrogen receptor (ER), a nuclear hormone receptor, plays an important role in development, metabolic homeostasis and reproduction. Two subtypes of ER, ER-alpha and ER-beta have similar expression patterns with some uniqueness in both types. Endocrine disrupting chemicals (EDCs) and their interactions with steroid hormone receptors like ER causes disruption of normal endocrine function. To identify the compounds that inhibit ER signaling, an ER-alpha-UAS-bla GripTiteTM cell line (Invitrogen, Carlsbad, CA, USA) containing a beta-lactamase reporter gene under the control of an Upstream Activator Sequence (UAS) stably integrated into HEK293 cells was used to screen the Tox21 10K compound library.
Tox21 Assay Protocol Summary:
ER-alpha-bla cells were cultured in assay medium containing 2% charcoal stripped FBS overnight in the culture flasks before the assay was performed. The cells were dispensed at 5,000 cells/5 uL of assay medium per well into black wall/clear-bottom 1536-well plates using a Multidrop Combi (ThermoFisher Scientific, Waltham, MA) dispenser. After the assay plates were incubated at a 37C and 5% CO2 for 4 hr, 23 nL of compounds dissolved in DMSO, positive controls or DMSO only was transferred to the assay plate by a Pintool station (Kalypsys, San Diego, CA), followed by addition of 1 uL of 17beta-estradiol in assay medium using a Flying Reagent Dispenser (Aurora Discovery, San Diego, CA). The plates were incubated at 37C and 5% CO2 for 18 hr. Then 1 uL of LiveBLAzerTM B/G FRET substrate was added using a Flying Reagent Dispenser, the plates were incubated at room temperature for 2 hours, and fluorescence intensity was measured by an Envision plate reader (PerkinElmer, Shelton, CT).
In general terms: In qHTS, concentration-response curves come from the screen itself.
Turning to `COc1ccc([N+](=O)[O-])cc1[N+](=O)[O-]`, the activity, negative = inhibition was inactive: -18.3%. On the same count and under the same terms, the result for `CC(C)OP(=O)(F)OC(C)C` reads inactive: -2.73%. Still for that read-out and setting: the result for `Cc1ccc([N+](=O)[O-])c([N+](=O)[O-])c1` reads inactive: 5.96%. On the same count and under the same terms, the result for `CC(C)N(CCCl)C(C)C` reads inactive: -24.6%; that for `CC(C)OP(C)(=O)OC(C)C`, inactive: 11.7% and inactive: -58.6%; that for `COP(C)(=O)OC`, inactive: 26.7%. With `Cc1ccc([N+](=O)[O-])cc1[N+](=O)[O-]`, the activity, negative = inhibition was inactive: 8.59% and inactive: -23%. The same measure, in the same setting: the result for `O=[N+]([O-])c1cccc([N+](=O)[O-])c1` reads inactive: -3.72%; that for `CP(=O)(O)OCCC[Si](O)(O)O`, inactive: 4.61%; that for `O=[N+]([O-])OCC(CO[N+](=O)[O-])(CO[N+](=O)[O-])CO[N+](=O)[O-]`, inactive: -21.7% and inactive: -8.13%.

Still in this test, the particulars now being: HEK293 ER-alpha-UAS-bla, beta-lactamase ratio, antagonist mode; at 79.1 µM (top of the series).
`N=C(N)N[N+](=O)[O-]`: the activity, negative = inhibition was inactive: -4.46%. The same measure, in the same setting: as for `CCN(CC)CCCl`, the figure is inactive: -6.2%; as for `Cc1ccc([N+](=O)[O-])c([N+](=O)[O-])c1`, inactive: -4.6%; as for `COP(C)(=O)OC`, inactive: -3.85%. The same measure, in the same setting: the result for `O=[N+]([O-])c1cccc([N+](=O)[O-])c1` reads inactive: -7.21%.
